{"source": "patent US8916541B2", "about": "“Synergistic combination of honokiol and modified citrus pectin in cancer therapy” (Better Health Publishing, Inc., priority 2011, dated 2014)", "test_system": "natural killer (NK) cells (CD56)", "experiment": "FastImmune CD69 NK-cell activation in whole blood cultures", "format": "cell-based, human", "conditions": "for NK-cell Activation, Activation (%): 24 h blood culture; for NK-cell Activation, % Increase: increase over untreated control", "text": "In vitro lymphocyte activation represents a standard approach for evaluating cell-mediated responses to a variety of stimuli including immunostimulatory botanical extracts. The FastImmune assay system monitors the expression of the early activation marker CD69 in whole blood after stimulation with extracts.\nCD19 antigen is present on human B lymphocytes at all stages of maturation and is not present on resting or activated T-lymphocytes. CD19/CD69/CD45 combination can be used to identify activated B cell population. CD56 antigen is present on natural killer (NK) cells and antigen intensity increases with NK-cell activation.\nBlood samples were collected from healthy volunteers and 250 μl blood sample were incubated in 48-well plates with increasing concentrations of compound along with appropriate positive controls (recommended by Becton Dickinson Biosciences, CA) for each subset. CD2/CD2R and Phorbol ester (PMA) were used as controls for T-lymphocyte activation studies. Pokeweed (PWM) mitogen was used as positive control for B-cell activation and IL-2 was used for activating NK-cells in blood cultures. T2CA, a characterized polysaccharide complex evaluated in these assays was also used as a control. The blood cultures were incubated at 37° C. in a CO2 incubator for 24 h. On the next day, 20 μl of specific antibody mix, [CD4-FITC/CD69-PE/CD45-PerCP (T-helper/inducer cell activation), CD8-FITC/CD69-PE/CD3-PerCP (T-cytotoxic/suppressor cell activation), CD19-FITC/CD69-PE/CD45-PerCP (B-cell activation) and CD56-FITC/CD69-PE/CD45-PerCP (NK-cell activation)] was dispensed into separate flow tubes and 50 μl blood sample was mixed with antibody and incubated for 30 minutes at room temperature in the dark. The blood-antibody mix was lyzed in a Coulter Epics Q-prep work station using Immunoprep kit and run on a Beckman Coulter Elite flow cytometer using a 3-color protocol. The percentage of activated T-cell subsets, B-cells and NK-cells and the percentage increase over untreated control were calculated and plotted against compound concentrations.", "data": [{"substance": "IL-2: used for activating NK-cells in blood cultures", "values": [{"measurement": "NK-cell Activation, Activation (%)", "setting": "3.3 ng/ml", "value": 8.80, "unit": "%"}, {"measurement": "NK-cell Activation, % Increase", "setting": "3.3 ng/ml", "value": 175.65, "unit": "%"}, {"measurement": "NK-cell Activation, Activation (%)", "setting": "6.6 ng/ml", "value": 13.30, "unit": "%"}, {"measurement": "NK-cell Activation, % Increase", "setting": "6.6 ng/ml", "value": 383.77, "unit": "%"}]}]}
